# According to patent US20230114241A1, “METHODS OF TREATING EPILEPSY USING THE SAME” (Trevena, Inc., priority 2019, published 2023):
# Amino acid sequences for entries named in this document (tags omitted). A change or cut given only in a name is not applied to a line headed by its entry.
# UniProt P21453, whole entry: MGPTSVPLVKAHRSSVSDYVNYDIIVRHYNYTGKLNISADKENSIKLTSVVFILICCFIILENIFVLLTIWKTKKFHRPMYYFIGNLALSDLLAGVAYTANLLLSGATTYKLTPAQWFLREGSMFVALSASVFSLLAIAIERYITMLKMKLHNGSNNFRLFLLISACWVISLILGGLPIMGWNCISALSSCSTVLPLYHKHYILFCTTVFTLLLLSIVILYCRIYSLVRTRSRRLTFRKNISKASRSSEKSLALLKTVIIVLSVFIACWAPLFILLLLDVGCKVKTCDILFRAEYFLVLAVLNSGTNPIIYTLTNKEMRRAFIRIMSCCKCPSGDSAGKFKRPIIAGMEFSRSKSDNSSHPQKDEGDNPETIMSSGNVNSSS
# UniProt Q9H228: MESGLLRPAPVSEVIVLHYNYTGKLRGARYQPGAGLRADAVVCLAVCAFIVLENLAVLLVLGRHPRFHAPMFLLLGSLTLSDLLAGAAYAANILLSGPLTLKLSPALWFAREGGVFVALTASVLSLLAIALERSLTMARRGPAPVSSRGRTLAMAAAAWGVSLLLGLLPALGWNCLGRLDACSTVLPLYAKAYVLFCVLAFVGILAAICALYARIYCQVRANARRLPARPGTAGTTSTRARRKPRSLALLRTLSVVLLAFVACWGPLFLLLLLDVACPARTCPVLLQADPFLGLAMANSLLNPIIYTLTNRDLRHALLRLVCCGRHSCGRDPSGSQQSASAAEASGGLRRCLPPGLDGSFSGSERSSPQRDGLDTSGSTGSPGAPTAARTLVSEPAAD
# UniProt Q99500: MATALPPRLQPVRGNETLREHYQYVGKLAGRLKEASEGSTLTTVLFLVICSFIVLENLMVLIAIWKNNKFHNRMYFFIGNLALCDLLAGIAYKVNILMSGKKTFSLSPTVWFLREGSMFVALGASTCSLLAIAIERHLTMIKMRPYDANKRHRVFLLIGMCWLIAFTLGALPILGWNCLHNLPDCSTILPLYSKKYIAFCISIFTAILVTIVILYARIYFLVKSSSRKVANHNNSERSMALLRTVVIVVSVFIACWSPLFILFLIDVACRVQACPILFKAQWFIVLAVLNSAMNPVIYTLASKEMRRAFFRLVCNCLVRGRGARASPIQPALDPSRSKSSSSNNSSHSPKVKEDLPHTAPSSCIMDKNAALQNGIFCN
# UniProt O95136: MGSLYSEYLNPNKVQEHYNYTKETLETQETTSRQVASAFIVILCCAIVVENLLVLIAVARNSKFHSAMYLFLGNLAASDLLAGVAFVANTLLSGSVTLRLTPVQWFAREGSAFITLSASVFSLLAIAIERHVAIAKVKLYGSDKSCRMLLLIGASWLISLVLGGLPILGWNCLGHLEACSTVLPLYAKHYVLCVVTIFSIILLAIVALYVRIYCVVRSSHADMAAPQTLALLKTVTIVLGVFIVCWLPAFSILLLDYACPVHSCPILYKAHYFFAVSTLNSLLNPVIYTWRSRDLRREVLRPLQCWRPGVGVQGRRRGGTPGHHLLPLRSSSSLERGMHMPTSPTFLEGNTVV
# Assays:
# Assay type in all cases: cell-based
# [1] = molecular target: human sphingosine-1-phosphate receptor 1 (S1P1) (Homo sapiens, UniProt P21453); assay: Inhibition of cAMP production (HTRF cAMP HiRange), S1P1 CHO-K1 cells
# [2] = molecular target: sphingosine-1-phosphate receptor 5 (S1P5) (Homo sapiens, UniProt Q9H228); assay: Selectivity: inhibition of cAMP production (HTRF), S1P5 CHO-K1 cells; details: efficacy normalized to maximal efficacy of fimgolimod
# [3] = molecular target: human sphingosine-1-phosphate receptor 3 (S1P3) (Homo sapiens, UniProt Q99500); assay: Selectivity: inhibition of cAMP production (HTRF), S1P3 CHO-K1 cells; details: efficacy normalized to maximal efficacy of fimgolimod
# [4] = molecular target: human sphingosine-1-phosphate receptor 2 (S1P2) (Homo sapiens, UniProt O95136); assay: Selectivity: inositol monophosphate production (IP-one), S1P2 CHO-K1 cells
compound,measurement,setting,value
"CC(C)Oc1ccc(-c2nc(-c3ccc4c(c3)nnn4C(C)C)no2)cc1C#N [Compound 22, 2-isopropoxy-5-(3-(1-isopropyl-1H-benzo[d] [1,2,3]triazol-5-yl)-1,2,4-oxadiazol-5-yl)benzonitrile]",EC50,[1],< 316 nM
same,hS1P5 cAMP SPAN,[2],<50
same,hS1P3 cAMP SPAN,[3],<50
same,hS1P2 IP-one SPAN,[4],<50
